According to patent US9282737B2, “Agent for preventing pollen dispersal” (NOF Corporation, priority 2008, dated 2016):

How the values were obtained:
[1] = test system: Cryptomeria japonica male flower buds and needle leaves; experiment: Evaluation 1: immersion test of Cryptomeria japonica; conditions: immersed about 1 min in agent, browning inspected visually after one week
Experimental: Evaluation 1 (Immersion Test of Cryptomeria japonica)
First, as agents to be used for an immersion test of Cryptomeria japonica, fatty acid derivative, fatty acid, polyoxyalkylene derivative, fats and oils and the like shown in Tables 1 and 2 were prepared. Next, many branches (length about 10 cm) of Cryptomeria japonica with 15 male flower buds on the tip were taken from the same tree of Cryptomeria japonica, and each group (five leaves for one group) was immersed in the agents (100 ml) of Tables 1 and 2. After immersing for about 1 min, the branches were taken out from the liquid and placed in a beaker. Browning changes were inspected visually on the male flower buds and needle leaves after one week. The test was performed using Cryptomeria japonica of August and November.

HLB of agent = assay type: physicochemical

polyoxyethylene sorbitan oleic acid ester [Example 6]
change of state of needle leaf (August) ([1]; branches of August): no change
change of state of needle leaf (November) ([1]; branches of November): no change
HLB (HLB of agent): (HLB = 15.0)
